# Test results published in patent publication US10813788B2, “Implantable therapeutic device” (ForSight Vision4, Inc., priority 2009, dated 2020).
# How the values were obtained:
# [1] = Release of BSA through sintered porous stainless steel cylinder (media grade 0.2), Example 8; settings: 316L stainless steel cylinder 0.031 x 0.049 in, 0.2 media grade, 300 mg/mL BSA, 17 uL, 37° C.
# [2] = models of proteins of therapeutic interest; cited from earlier work
# [3] = Diffusion coefficients in water (literature value and estimate by equation); assay type: physicochemical; settings: 37 C; estimated from the BSA value by MW and viscosity equation
# From the text: If the reservoir solution is aqueous or has a viscosity similar to water, the value for the diffusion coefficient of the therapeutic agent (TA) in water at the temperature of interest may be used. […] (Molokhia et al, Exp Eye Res 2008): DTA,37C=DBSA,20C(η20C/η37C)(MWBSA/MWTA)^1/3 where MW refers to the molecular weight of either BSA or the test compound and η is the viscosity of water.
# Small molecules have a diffusion coefficient similar to fluorescein (MW=330, D=4.8 to 6 e-6 cm^2/s from Stay, M S et al. Pharm Res 2003, 20(1), pp. 96-102). For example, the small molecule may comprise a glucocorticoid such as triamcinolone acetonide having a molecular weight of about 435.
# [4] = Release of BSA through sintered porous titanium cylinder, Example 5; settings: titanium cylinder 0.062 x 0.039 in, 0.2 media grade; 300 mg/mL BSA, 100 uL, room temperature; fit to 180 days
# [5] = in water at 20 C, measured value of Molokhia et al, Exp Eye Res 2008, cited from earlier work
substance,measurement,setting,value
bovine serum albumin [BSA],PA/FL ratio (Release Rate Index),[1]; FIG. 18A,0.0475 mm
same,PA/FL ratio (Release Rate Index),"[1]; for 180 days, FIG. 18B",0.038 mm
same,diameter,[2],7.2 nm
same,Diff Coeff,[3],9.1E−07 cm^2/s
same,Release Rate Index,[4],0.21 mm
same,Diff Coeff,[5],6.1E−07 cm^2/s
same,Diff Coeff,[5]; listed as bovine serum albumin,6.1 e-7 cm^2/s

# Read-outs that look alike come from different tables or passages of the source.
